Structures are written as SMILES.

Data set [1] has as its system A2780cisR (ovarian carcinoma). Description: MTT cytotoxicity assay, A2780cisR. Conditions: IC50 (A2780cisR)/IC50 (A2780).
Data set [2] has as its system MDA-MB-231 (breast adenocarcinoma). Description: MTT cytotoxicity assay, MDA-MB-231. Particulars: tested cancer cell lines, MTT 72 h. In general terms: Formazan colour is commonly taken as a measure of viable cells.

`[H]/N=C(/N)N/C(=N/[H])NCCc1ccccc1` [Phenformin]: in data set [1], the “RF (Resistance Factor)” value turned out to be 2. The cytotoxicity in words result in data set [2] is given as “only marginally cytotoxic”.

Source of the values: US20230106519A1, “GOLD(III)-BIGUANIDE PRODRUGS, METHODS OF PREPARATION AND USES THEREOF” (National University of Singapore, priority 2020, published 2023).
